Measured values from patent publication US20050004011A1, “Compositions and methods for treating bacterial infections with protein-dalbavancin complexes” (priority 2002, published 2005).
Like-named read-outs stand apart in the source and are kept apart here.

Test system: N,N′-diacetyl-Lys-D-Ala-D-Ala
Test: ITC of binding to tri-peptide, with and without HSA
Conditions: for Kd: read-out: Kdiss

Question: For CN[C@H]1C(=O)N[C@@H]2Cc3ccc(cc3)Oc3cc4cc(c3O[C@@H]3O[C@H](C(=O)O)[C@@H](O)[C@H](O)[C@H]3NC(=O)CCCCCCCCC(C)C)Oc3ccc(cc3Cl)[C@@H](O)[C@@H]3NC(=O)[C@H](NC(=O)[C@@H]4NC(=O)[C@@H](NC2=O)c2cc(cc(O)c2Cl)Oc2cc1ccc2O)c1ccc(O)c(c1)-c1c(O[C@H]2O[C@H](CO)[C@@H](O)[C@H](O)[C@@H]2O)cc(O)cc1[C@@H](C(=O)NCCCN(C)C)NC3=O [Dalbavancin], which Kass (T 25 ° C., [HSA] 601 μM) is on record?
Answer: 21800 M⁻¹

Question: What about the Kass (T 37 ° C., [HSA] 482 μM) of the same molecule?
Answer: 12500 M⁻¹

Question: And the Kd (T 25 ° C., [HSA] 601 μM)?
Answer: 45.9 µM

Question: What about the Kd (T 37 ° C., [HSA] 482 μM) of the same molecule?
Answer: 80 µM
